Legend:
[1] = target: GDP-bound NRAS wild-type protein (Homo sapiens, UniProt P01111); test: Binding to NRAS by surface plasmon resonance (SPR), Single Cycle Kinetics; settings: KD ratio class
[2] = target: GDP-bound HRAS wild-type protein (Homo sapiens, UniProt P01112); test: Binding to HRAS by surface plasmon resonance (SPR), Single Cycle Kinetics; settings: KD ratio class

Protein sequences, listed by entry. Tags and fused reporters are not part of them.
UniProt P01111, whole entry: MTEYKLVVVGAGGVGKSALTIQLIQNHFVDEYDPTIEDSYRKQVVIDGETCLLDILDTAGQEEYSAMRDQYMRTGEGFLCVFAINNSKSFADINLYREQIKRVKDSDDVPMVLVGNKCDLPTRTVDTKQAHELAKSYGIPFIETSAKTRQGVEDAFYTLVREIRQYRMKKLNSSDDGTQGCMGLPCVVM
UniProt P01112, whole entry: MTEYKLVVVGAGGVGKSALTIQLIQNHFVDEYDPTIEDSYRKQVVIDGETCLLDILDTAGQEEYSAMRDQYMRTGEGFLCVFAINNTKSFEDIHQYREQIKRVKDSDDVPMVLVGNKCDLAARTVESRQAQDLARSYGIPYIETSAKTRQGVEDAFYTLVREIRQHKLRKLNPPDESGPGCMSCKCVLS

| SMILES | NRAS/KRAS (ratio of KD value for GDP-bound NRAS wild-type protein to KD value for KRAS) [1] | HRAS/KRAS (ratio of KD value for GDP-bound HRAS wild-type protein to KD value for KRAS) [2] |
| --- | --- | --- |
| CC[C@H](C)[C@@H]1NC(=O)[C@H](CC(C)C)N(C)C(=O)C[C@@H](C(=O)N2CCOCC2)N(C)C(=O)[C@H](C2CCCC2)N(C)C(=O)C2(CCC2)NC(=O)[C@@H]2CCCN2C(=O)[C@H](CCc2ccc(C(F)(F)F)c(Cl)c2)NC(=O)CN(C)C(=O)[C@H](Cc2ccc(C(F)(F)F)cc2)N2C[C@H](C)CC[C@@H](C2=O)N(C)C(=O)[C@@H]2CCN2C1=O | A (a compound having 10 or more and less than 20 is denoted as A) | B (a compound having 3 or more and less than 10 is denoted as B) |
| CCO[C@@H]1C[C@H]2C(=O)NC3(CCC3)C(=O)N(C)[C@@H](C3CCCC3)C(=O)N(C)[C@H](C(=O)N(C)C)CC(=O)N(C)[C@@H](CC3CCC3)C(=O)N[C@@H]([C@@H](C)CC)C(=O)N(C)CC(=O)N(C)[C@H]3C/C=C\CCN(C3=O)[C@@H](CC3CCC(F)(F)CC3)C(=O)N(C)CC(=O)N[C@@H](CCc3cc(F)c(C(F)(F)F)c(F)c3)C(=O)N2C1 | A (a compound having 10 or more and less than 20 is denoted as A) | A (a compound having 10 or more and less than 20 is denoted as A) |
| CC[C@H](C)[C@@H]1NC(=O)[C@H](CC2CC2)N(C)C(=O)C[C@@H](C(=O)N(C)C)N(C)C(=O)[C@H](C2CCCC2)N(C)C(=O)C2(CCC2)NC(=O)[C@@H]2CC(F)(F)CN2C(=O)[C@H](CCc2cc(F)c(C(F)(F)F)c(F)c2)NC(=O)CN(C)C(=O)[C@H](Cc2ccc(C(F)(F)F)cc2)N2CC/C=C\C[C@@H](C2=O)N(C)C(=O)CN(C)C1=O | A (a compound having 10 or more and less than 20 is denoted as A) | A (a compound having 10 or more and less than 20 is denoted as A) |
| CCC[C@H]1C(=O)N[C@@H]([C@@H](C)CC)C(=O)N(C)CC(=O)N(C)[C@H]2C/C=C\CCN(C2=O)[C@@H](Cc2ccc(C(F)(F)F)cc2)C(=O)N(C)CC(=O)N[C@@H](CCc2ccc(C(F)(F)F)c(OC)c2)C(=O)N2C[C@H](OCC)C[C@H]2C(=O)NC2(CCC2)C(=O)N(C)[C@@H](C2CCCC2)C(=O)N(C)[C@H](C(=O)N(C)C)CC(=O)N1C | A (a compound having 10 or more and less than 20 is denoted as A) | B (a compound having 3 or more and less than 10 is denoted as B) |
| CCO[C@@H]1C[C@H]2C(=O)NC3(CCC3)C(=O)N(C)[C@@H](C3CCCC3)C(=O)N(C)[C@H](C(=O)N3CCCC3)CC(=O)N(C)[C@@H](C)C(=O)N[C@@H]([C@@H](C)CC)C(=O)N(C)CC(=O)N(C)[C@H]3C/C=C\CCN(C3=O)[C@@H](Cc3ccc(C(F)(F)F)cc3)C(=O)N(C)CC(=O)N[C@@H](CCc3cc(F)c(C(F)(F)F)c(F)c3)C(=O)N2C1 | AA (a compound having 20 or more is denoted as AA) | A (a compound having 10 or more and less than 20 is denoted as A) |
| CCO[C@@H]1C[C@H]2C(=O)NC3(COC3)C(=O)N(C)[C@@H](C3CCCC3)C(=O)N(C)[C@H](C(=O)N(C)C)CC(=O)N(C)[C@@H](CC)C(=O)N[C@@H]([C@@H](C)CC)C(=O)N(C)CC(=O)N(C)[C@H]3C/C=C\CCN(C3=O)[C@@H](Cc3ccc(C(F)(F)F)cc3)C(=O)N(C)CC(=O)N[C@@H](CCc3cc(F)c(C(F)(F)F)c(F)c3)C(=O)N2C1 | A (a compound having 10 or more and less than 20 is denoted as A) | B (a compound having 3 or more and less than 10 is denoted as B) |
| CCO[C@@H]1C[C@H]2C(=O)NC3(CCC3)C(=O)N(C)[C@@H](C3CCCC3)C(=O)N(C)[C@H](C(=O)N(C)C)CC(=O)N(C)[C@@H](CC)C(=O)N[C@@H]([C@@H](C)CC)C(=O)N(C)CC(=O)N(C)[C@H]3C/C=C\CCN(C3=O)[C@@H](Cc3ccc(C(F)(F)F)cc3)C(=O)N(C)CC(=O)N[C@@H](CCc3ccc(C(F)(F)F)c(OC)c3)C(=O)N2C1 | A (a compound having 10 or more and less than 20 is denoted as A) | A (a compound having 10 or more and less than 20 is denoted as A) |
| CCO[C@@H]1C[C@H]2C(=O)NC3(CCC3)C(=O)N(C)[C@@H](C3CCCC3)C(=O)N(C)[C@H](C(=O)N3CCCC3)CC(=O)N(C)[C@@H](CC(F)F)C(=O)N[C@@H]([C@@H](C)CC)C(=O)N(C)CC(=O)N(C)[C@H]3C/C=C\CCN(C3=O)[C@@H](Cc3ccc(C(F)(F)F)cc3)C(=O)N(C)CC(=O)N[C@@H](CCc3cc(F)c(C(F)(F)F)c(F)c3)C(=O)N2C1 | AA (a compound having 20 or more is denoted as AA) | A (a compound having 10 or more and less than 20 is denoted as A) |
| CCO[C@@H]1C[C@H]2C(=O)NC3(CCC3)C(=O)N(C)[C@@H](C3CCCC3)C(=O)N(C)[C@H](C(=O)N3CCCC3)CC(=O)N(C)[C@@H](CC3CCC3)C(=O)N[C@@H]([C@@H](C)CC)C(=O)N(C)CC(=O)N(C)[C@H]3C/C=C\CCN(C3=O)[C@@H](Cc3ccc(C(F)(F)F)cc3)C(=O)N(C)CC(=O)N[C@@H](CCc3cc(F)c(C(F)(F)F)c(F)c3)C(=O)N2C1 | AA (a compound having 20 or more is denoted as AA) | A (a compound having 10 or more and less than 20 is denoted as A) |
| CC[C@H](C)[C@@H]1NC(=O)[C@H](CC(C)C)N(C)C(=O)C[C@@H](C(=O)N(C)C)N(C)C(=O)[C@H](C2CCCC2)N(C)C(=O)C2(CCC2)NC(=O)[C@@H]2CCCN2C(=O)[C@H](CCc2cc(F)c(C(F)(F)F)c(F)c2)NC(=O)CN(C)C(=O)[C@H](Cc2ccc(C(F)(F)F)cc2)N2CC/C=C\C[C@@H](C2=O)N(C)C(=O)CN(C)C1=O | A (a compound having 10 or more and less than 20 is denoted as A) | A (a compound having 10 or more and less than 20 is denoted as A) |
| CCO[C@@H]1C[C@H]2C(=O)NC3(CCC3)C(=O)N(C)[C@@H](C3CCCC3)C(=O)N(C)[C@H](C(=O)N(C)C)CC(=O)N(C)[C@@H](CC3CCCC3)C(=O)N[C@@H]([C@@H](C)CC)C(=O)N(C)CC(=O)N(C)[C@H]3C/C=C\CCN(C3=O)[C@@H](CC3CCCCC3)C(=O)N(C)CC(=O)N[C@@H](CCc3cc(F)c(C(F)(F)F)c(F)c3)C(=O)N2C1 | A (a compound having 10 or more and less than 20 is denoted as A) | A (a compound having 10 or more and less than 20 is denoted as A) |
| CC[C@H](C)[C@@H]1NC(=O)[C@H](CC2CC2)N(C)C(=O)C[C@@H](C(=O)N2CCCC2)N(C)C(=O)[C@H](C2CCCC2)N(C)C(=O)C2(CCCC2)NC(=O)[C@@H]2C[C@@H](F)CN2C(=O)[C@H](CCc2cc(F)c(C(F)(F)F)c(F)c2)NC(=O)CN(C)C(=O)[C@H](Cc2ccc(C(F)(F)F)cc2)N2CC/C=C\C[C@@H](C2=O)N(C)C(=O)CN(C)C1=O | A (a compound having 10 or more and less than 20 is denoted as A) | A (a compound having 10 or more and less than 20 is denoted as A) |
| CCO[C@@H]1C[C@H]2C(=O)NC3(CCC3)C(=O)N(C)[C@@H](C3CCCC3)C(=O)N(C)[C@H](C(=O)N(C)C)CC(=O)N(C)[C@@H](CC)C(=O)N[C@@H](C3CCC3)C(=O)N(C)CC(=O)N(C)[C@H]3C/C=C\CCN(C3=O)[C@@H](Cc3ccc(C(F)(F)F)cc3)C(=O)N(C)CC(=O)N[C@@H](CCc3cc(F)c(C(F)(F)F)c(F)c3)C(=O)N2C1 | A (a compound having 10 or more and less than 20 is denoted as A) | B (a compound having 3 or more and less than 10 is denoted as B) |
| C=CC[C@H]1C(=O)N[C@@H]([C@@H](C)CC)C(=O)N(C)CC(=O)N(C)[C@H]2C/C=C\CCN(C2=O)[C@@H](CC2CCCCC2)C(=O)N(C)CC(=O)N[C@@H](CCc2cc(F)c(C(F)(F)F)c(F)c2)C(=O)N2C[C@H](OCC)C[C@H]2C(=O)NC2(CCC2)C(=O)N(C)[C@@H](C2CCCC2)C(=O)N(C)[C@H](C(=O)N(C)C)CC(=O)N1C | A (a compound having 10 or more and less than 20 is denoted as A) | A (a compound having 10 or more and less than 20 is denoted as A) |
| CCO[C@@H]1C[C@H]2C(=O)NC3(CCC3)C(=O)N(C)[C@@H](C3CCCC3)C(=O)N(C)[C@H](C(=O)N3CCCCC3)CC(=O)N(C)[C@@H](CC(F)F)C(=O)N[C@@H]([C@@H](C)CC)C(=O)N(C)CC(=O)N(C)[C@H]3C/C=C\CCN(C3=O)[C@@H](Cc3ccc(C(F)(F)F)cc3)C(=O)N(C)CC(=O)N[C@@H](CCc3cc(F)c(C(F)(F)F)c(F)c3)C(=O)N2C1 | AA (a compound having 20 or more is denoted as AA) | A (a compound having 10 or more and less than 20 is denoted as A) |
| CC[C@H](C)[C@@H]1NC(=O)[C@H](CC)N(C)C(=O)C[C@@H](C(=O)N(C)C)N(C)C(=O)[C@H](C2CCCC2)N(C)C(=O)C2(CCC2)NC(=O)[C@@H]2CC(F)(F)CN2C(=O)[C@H](CCc2cc(F)c(C(F)(F)F)c(F)c2)NC(=O)CN(C)C(=O)[C@H](CC2CCC(F)(F)CC2)N2CC/C=C\C[C@@H](C2=O)N(C)C(=O)CN(C)C1=O | A (a compound having 10 or more and less than 20 is denoted as A) | A (a compound having 10 or more and less than 20 is denoted as A) |

From patent US20250230193A1, “CYCLIC COMPOUND HAVING SELECTIVE KRAS INHIBITORY EFFECT ON HRAS AND NRAS” (CHUGAI SEIYAKU KABUSHIKI KAISHA, priority 2022, published 2025)
